Measurements taken from patent publication US5284834A, “Adenosine functionalized congeners as cardiovascular treating agents for animals and methods for using same” (priority 1992, dated 1994).

Sequences of proteins named here, by UniProt entry; tags and fusion partners are left off.
UniProt P11617, whole entry: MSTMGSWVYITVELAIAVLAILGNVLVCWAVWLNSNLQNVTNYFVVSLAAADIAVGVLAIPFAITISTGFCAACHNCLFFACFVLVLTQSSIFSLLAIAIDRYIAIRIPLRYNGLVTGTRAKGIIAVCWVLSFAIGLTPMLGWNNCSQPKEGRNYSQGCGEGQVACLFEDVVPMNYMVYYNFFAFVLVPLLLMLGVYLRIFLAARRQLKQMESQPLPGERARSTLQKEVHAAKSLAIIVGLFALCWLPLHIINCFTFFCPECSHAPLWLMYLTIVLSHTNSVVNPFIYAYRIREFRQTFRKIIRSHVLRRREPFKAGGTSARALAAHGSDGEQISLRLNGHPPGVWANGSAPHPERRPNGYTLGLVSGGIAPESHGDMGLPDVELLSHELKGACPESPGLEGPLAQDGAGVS

Biological target: T1, Coronary A2-Adenosine Receptor (Canis lupus familiaris, UniProt P11617)
T1 construct: The assay of coronary vasoactivity in the anesthetized, open-chest dog; from tissue; host or cells: coronary vessels in situ, anesthetized open-chest dog
Test: Coronary vasoactivity in the anesthetized, open-chest dog (intracoronary infusion; MPR from EC50)
Format: in vivo
Details: molar potency ratio: EC50 of adenosine divided by that of the analogue
Excerpt: In the present invention there is compared the A1 - and A2 -potencies of a series of long-chain derivatives of adenosine suitable for attachment to "carriers," such as peptides or proteins, and for immobilization to polymeric matrices for affinity chromatography of adenosine receptors. The method employed is a comparison of increasing coronary blood flow via activation of an A2 -adenosine receptor versus an A1 -binding assay in rat brain.
The potencies at A2 -receptors (Table 1) are expressed as a molar potency ratio of the EC50 value of adenosine divided by that of the adenosine analogue. A common reference compound on which to base molar potency ratios was needed to facilitate comparison of activities at A1 and A2 receptors. Adenosine itself cannot be used as a reference in the A1 binding assay since treatment of the membranes with adenosine deaminase is essential. […] Thus, MeAdo was used as a suitable reference compound.
The assay of coronary vasoactivity in the anesthetized, open-chest dog, is described by Kusachi et al, J. Med. Chem., in press, and Olsson, et al, J. Circ. […] The assay estimates an EC-50, the concentration of analogue which produces a half maximum change in coronary conductance (reciprocal resistance). To reduce between-animal variability activity is expressed as a molar potency ratio (MPR) the value of the EC-50 of adenosine divided by that of the analogue. […]

How did the “A2 Receptor MPR Relative to Ado” value turn out when CNC(=O)Cc1ccc(Nc2ncnc3c2ncn3[C@@H]2O[C@H](CO)[C@@H](O)[C@H]2O)cc1 [Compound 9] was run?
Its value is 4.9 ± 1.3.
